Here are results for 2 substances from article PMC5161541 (Nuclear medicine and biology, 2016).

Chains of the proteins cited; added tags and fusions are not shown.
UniProt O55242, whole entry: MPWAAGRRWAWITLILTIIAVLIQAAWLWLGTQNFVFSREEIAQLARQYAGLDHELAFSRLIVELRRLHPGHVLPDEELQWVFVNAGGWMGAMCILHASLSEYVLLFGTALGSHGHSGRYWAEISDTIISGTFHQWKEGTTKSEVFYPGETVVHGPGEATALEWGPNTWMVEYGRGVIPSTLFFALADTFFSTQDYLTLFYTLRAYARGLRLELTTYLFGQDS

In this experiment the target is sites labeled by [125I]-E-IA-BF-PIPZE (σ1 receptors) (Mus musculus, UniProt O55242). The class given is binding. The note with it: means ± SEM (n = 3 – 6); for IC50 / Ki: 0.1 nM [125I]-E-IA-BF-PIPZE; for IC50: 37 °C, 180 min; for Ki: Cheng-Prusoff.

Regarding (+)-SKF10,047, the IC50 worked out at 43.2 ± 3.5 nM, the affinity corresponds to a Ki of 28.8 ± 2.4 nM and the “Hill (nH)” value is recorded as 1.1 ± 0.1.
Taken in the same sequence, the figures for (−)-SKF10,047 were 7090 ± 519 nM, 5000 ± 366 nM and 1.3 ± 0.3.

Broadly, the IC50 is the midpoint of a concentration-inhibition curve. For orientation: Ki means a dissociation constant, usually derived from enzyme kinetics or from competition with a known ligand. Read a low Ki as a stronger hold on the target.
